# Literature values as cited in patent US6117976A, “Manufacture and use of polypeptides tagged using binding molecules” (Medical Research Council, priority 1993, dated 2000).
# Molecular target: calmodulin (Homo sapiens, UniProt P0DP23)
# Conditions: Table 1, affinities of calmodulin-binding peptides; cited from earlier work
row,Substance,Kd [nM]
1,INWKGIAAMAKKLL-NH2 [Mastoparan X],1
2,VNWKKIGQHILSVL-NH2 [Mastoparan Polist.],4
